From patent publication US9820966B2, “Stabilized statin formulations” (Cumberland Pharmaceuticals Inc., priority 2010, dated 2017)
Read-outs that look alike come from different tables or passages of the source.

Experiments:
[1] = 20 mg AS in 1 mL propylene glycol and ethanol (4/1 ratio); pH 11.0; estimated
[2] = Solubility in basic solutions without cyclodextrin (HPLC)
[3] = 20 mg AS—Ca in 1 ml
[4] = 20 mg/ml AS—Ca

CC(C)c1c(C(=O)Nc2ccccc2)c(-c2ccccc2)c(-c2ccc(F)cc2)n1CC[C@@H](O)C[C@@H](O)CC(=O)O [AS, Atorvastatin free acid]
AS concentration [1]: about 20 mg/ml
resulting AS concentration ([2]; Sample 2: 20 mg AS in 1 mL ultrapure water, pH 11.15 with 0.1M NaOH): 0.06 mg/mL
resulting AS concentration ([2]; Sample 3: 20 mg AS in 1 mL, 16.54 mM L-Arg and 0.1M Na3PO4, pH 11.42): 0.44 mg/mL

CC(C)c1c(C(=O)Nc2ccccc2)c(-c2ccccc2)c(-c2ccc(F)cc2)n1CC[C@@H](O)C[C@@H](O)CC(=O)O [AS—Ca, atorvastatin calcium trihydrate]
Atorvastatin Concentration ([3]; pH 7.5, HPβ-CD 0.87%): 0.34 mg/mL
Atorvastatin Concentration ([3]; pH 7.5, HPβ-CD 1.74%): 0.43 mg/mL
Atorvastatin Concentration ([3]; pH 7.5, HPβ-CD 3.47%): 1.38 mg/mL
Atorvastatin Concentration ([3]; pH 7.5, HPβ-CD 6.94%): 5.13 mg/mL
Atorvastatin Concentration ([3]; pH 7.5, HPβ-CD 13.89%): 10.01 mg/mL
Atorvastatin Concentration ([3]; pH 7.5, HPβ-CD 27.78%): 19.48 mg/mL
Atorvastatin Concentration ([3]; pH 8.5, HPβ-CD 0.87%): 0.215 mg/mL
Atorvastatin Concentration ([3]; pH 8.5, HPβ-CD 1.74%): 0.52 mg/mL
Atorvastatin Concentration ([3]; pH 8.5, HPβ-CD 3.47%): 1.58 mg/mL
Atorvastatin Concentration ([3]; pH 8.5, HPβ-CD 6.94%): 5.54 mg/mL
Atorvastatin Concentration ([3]; pH 8.5, HPβ-CD 13.89%): 12.42 mg/mL
Atorvastatin Concentration ([3]; pH 8.5, HPβ-CD 27.78%): 19.72 mg/mL
Atorvastatin ([4]; 27.78% SBE-β-CD, Na2HPO4, pH 7.07): 1.993 mg/mL
Atorvastatin ([4]; 27.78% SBE-β-CD, Na2HPO4, pH 8.75): 1.267 mg/mL
Atorvastatin ([4]; 27.78% SBE-β-CD, Na2HPO4, pH 11.75): 1.927 mg/mL
Atorvastatin ([4]; 27.78% SBE-β-CD, sodium phosphate (NaH2PO4), pH 2.13): 0.228 mg/mL
Atorvastatin ([4]; […], pH 7.09): 1.392 mg/mL
Atorvastatin ([4]; […], pH 11.0 (NaOH)): 1.927 mg/mL
